Laboratory results: patent US20020019344A1, “Methods of preventing allograft rejection” (priority 2000, published 2002)

Test system: IL-2 secretion in human T lymphocytes
Assay: Inhibition of PHA/PMA-induced IL-2 secretion in human T lymphocytes
Assay type: cell-based
Conditions: Example 1

## CN(CCOc1ccc(CC2SC(=O)NC2=O)cc1)c1ccccn1 (stereo not shown) [rosiglitazone]
  concentration at which inhibition of IL-2 production was evident: 0.1 µmol/L
